Source: PubChem
Compounds with a hit are over-represented: about 2.3% of the library has one in this group of screens.
MC4R ag barr: agonists of human melanocortin 4 receptor (MC4R) beta-arrestin; P32245; U2OS MC4R beta-arrestin complementation, luminescence; percent of melanotan II response, DMSO zero; activation, % at 8.9 µM; 360,000 compounds, 0.98% hits; AID 540308;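 active means activation above a per-plate cutoff, the mean activation of sample wells on that plate plus 3 SD, cut at about 8% in these data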
ARFGAP1 inh: inhibitors of rat ARFGAP1. Q62848. 360,000 compounds, 0.26% hits. inhibition, % at 16.5 µM. Arfgap1-stimulated ARF1 GTP hydrolysis, GDP FP detection;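 active means inhibition above a per-plate limit, mean inhibition of low control wells plus 3 SD, cut at about 25% in these data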;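 further: 0% = DMSO wells with enzyme and 100% = wells lacking Arfgap1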
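Replicates: Single well per compound | Assay system: Truncated rat Arfgap1 GAP domain | Control set: No-Arfgap1 wells (100%) versus DMSO full-reaction wells (0%) | Times: Enzyme reaction 120 min at 25 °C after 20 min preincubation | Reagent: Human ARF1(Δ1-17)-GTP substrate | Measured by: Tracer-displacement fluorescence polarization with EDTA stop, 620/688 nm | Measure: Percent inhibition of Arfgap1-stimulated GTP hydrolysis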
CendR NRP1 mod: alters CendR peptide binding to human NRP-1 | O14786 | FAM-RPARPAR peptide binding to NRP-1, fluorescence polarization | inhibition, % at 25 µM | 360,000 compounds, 0.85% hits;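 active means inhibition or corrected inhibition above about 18%, plus a signal ratio from 0.5 to 1.5, limit read from the data, passing the limit was not always enough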
ASAP1 inh: blocks human ASAP1-stimulated Arf1 GTP hydrolysis. Q9ULH1. GDP FP detection. inhibition, % at 16.5 µM. 360,000 compounds, 0.19% hits; in the data active means inhibition above about 25%;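 further: 0% = vehicle with enzyme and substrate and 100% = no enzyme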
UUG fidelity: alters start codon recognition fidelity in yeast. S. cerevisiae UUG-firefly luciferase reporter, luminescence/redox ratio. AID 602363. activity score, % at 18.7 µM. hit rate 0.13% among 350,000;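 active = replicate mean at a twofold rise or more, about +100% in these data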;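 note: firefly luciferase made from a UUG start codon reports start codon fidelity; reporter light over untreated wells divided by growth signal over untreated wells; some hits fall short of that in this replicate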
MC4R antagonist: antagonists of human melanocortin 4 receptor (MC4R); P32245; MC4R-expressing cells, MTII-stimulated cAMP, LANCE TR-FRET; inhibition, % at 6.5 µM; 360,000 compounds, 0.48% hits; AID 540295;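 active means inhibition above its plate's cutoff, the mean of tested wells on that plate plus 3 SD, cut at about 29% in these data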;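 further: 0% = Melanotan II alone and 100% = Melanotan II plus saturating MCL0020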
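Test system: U2OS cells stably expressing human melanocortin 4 receptor (MC4R); also added: Melanotan II challenge; compound: 6.5 µM single dose; timing: 30-min compound preincubation, 1-h Melanotan II challenge, 1-h detection, room temperature; signal: Eu-cAMP/anti-cAMP TR-FRET, emission 671 nm; repeats: one well per compound, no replicates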
* marks the source's active call; other numbers are inactive results; . = not tested or not shown.

Fields: MC4R ag barr	ARFGAP1 inh	CendR NRP1 mod	ASAP1 inh	UUG fidelity	MC4R antagonist
1) CC1CCCCC1NCC(=O)Nc1ccccc1-c1ccccc1 (centres undefined)
  9.5*	6.4	-4.7	4.3	-0.7	10.8
2) O=C(Nc1ccccc1-c1ccccc1)C1CCCCC1
  3.1	-3.1	-5.4	0.0	.	13.7
3) CC1CCN(CC(=O)Nc2ccccc2-c2ccccc2)CC1
  0.2	4.5	36.3*	9.0	-11.7	-0.4
4) C[C@H]1CN([C@@H](C)CO)S(=O)(=O)c2ccc(-c3ccncc3)cc2O[C@H]1CN(C)C(=O)C1CCCCC1
  .	.	.	.	-14.1	.
5) Cc1sc2ncn(CC(=O)NCCCC(=O)N3CCC(C(N)=O)CC3)c(=O)c2c1C
  -1.3	7.6	7.6	-4.9	-16.7	5.8
6) CCCN1CCN(C(=O)CCCNC(=O)Cn2cnc3sc(C)c(C)c3c2=O)CC1
  0.1	1.7	25.9*	-5.3	-16.2	-0.7
7) Cc1ccc(N(CCC(=O)O)S(=O)(=O)c2ccccc2)cc1
  -0.5	2.2	1.4	11.5	.	4.0
8) Cc1cc(C)cc(N(CCC(=O)O)S(=O)(=O)c2ccc3ccccc3c2)c1
  4.5	6.9	42.1*	5.5	.	4.5
9) O=C(CCc1ccccc1)N=C1SC2CS(=O)(=O)CC2N1Cc1ccccc1 (centres undefined)
  8.9*	7.4	-0.3	14.0	.	8.7
10) COc1ccc(CN2C(=NC(=O)CCc3ccccc3)SC3CS(=O)(=O)CC32)cc1 (centres undefined)
  1.2	10.7	0.9	-4.5	-10.3	-0.3
11) O=C(NCC[C@@H]1CC[C@@H](NS(=O)(=O)c2cccc(F)c2)[C@@H](CO)O1)c1cnccn1
  .	.	.	.	-9.0	.
12) CCOCCCNC(=S)NC1CC2CCC(C1)N2Cc1ccccc1 (centres undefined)
  -0.4	-3.3	-2.7	-9.7	.	-11.2
13) COCCCNC(=S)NC1CC2CCC(C1)N2Cc1ccccc1 (centres undefined)
  1.1	6.8	48.0*	-9.6	.	-0.9
14) COc1ccc(NS(=O)(=O)c2ccc(C)c(NC(=O)CN3C(=O)NC4(CCCC4)C3=O)c2)cc1
  -2.5	-6.2	30.0*	9.5	-0.8	4.5
15) COc1ccc(CN(C)C[C@H]2OCCCC[C@H](C)Oc3ccc(NC(=O)c4ccncc4)cc3C(=O)N([C@H](C)CO)C[C@@H]2C)cc1
  .	.	.	.	27.5	.
16) Cc1noc(C)c1NC(=O)Nc1ccc2c(c1)C(=O)N([C@H](C)CO)C[C@H](C)[C@H](CN(C)C(=O)Nc1ccc3c(c1)OCO3)OCCCC[C@@H](C)O2
  .	.	.	.	-0.7	.
17) Cc1c(Cl)c(C(F)(F)F)nn1CC(=O)N1CCSCC1
  -0.2	7.1	47.9*	5.8	-9.7	-2.4
18) Oc1ccc(/C=N/Nc2cc(N3CCOCC3)nc(N3CCOCC3)n2)cc1O
  -1.4	6.1	25.7*	-0.4	.	-22.4
19) C[C@H]1CN([C@@H](C)CO)C(=O)c2cc(-c3ccccc3)cnc2O[C@H]1CN(C)Cc1cccnc1
  .	.	.	.	-4.7	.
20) C=C(C)COc1ccc(-c2[nH]ncc2-c2ccccc2)c(O)c1
  3.9	17.2	25.3*	-3.8	-3.4	1.9
21) COc1ccccc1C(=O)N1C[C@H]2[C@@H](c3ccccc31)[C@@H](CO)N2Cc1ccc(F)cc1
  .	.	.	.	-13.5	.
22) CC(C)[C@@H](CO)NC(=O)[C@H]1O[C@@H](n2cnc3c(N)ncnc32)[C@H](O)[C@@H]1O
  .	11.5	10.3	3.4	-17.6	.
23) CN(C)c1cccc2c(S(=O)(=O)NC(=O)[C@H]3O[C@@H](n4cnc5c(N)ncnc54)[C@H](O)[C@@H]3O)cccc12
  .	0.4	25.4*	-4.9	-4.6	.
24) C[C@H]1CN([C@@H](C)CO)C(=O)Cc2cc(NC(=O)Nc3ccc(F)cc3)ccc2O[C@H]1CN(C)S(=O)(=O)c1ccc(Cl)cc1
  .	.	.	.	-9.5	.
25) CCN(CC)S(=O)(=O)c1ccc(-c2nnc(SCc3nnc(-c4ccccc4)o3)o2)cc1
  8.4*	10.9	-11.8	11.4	-30.0	3.8
26) Cc1ccccc1-c1cnc2c(c1)C(=O)N([C@@H](C)CO)C[C@@H](C)[C@@H](CN(C)C(=O)c1ccncc1)O2
  .	.	.	.	-0.2	.
27) COc1ccc(N=C2C(=Nc3ccc(OC)cc3)N(c3ccc(N(C)C)cc3)C(=S)N2c2ccc(OC)cc2)cc1
  -1.1	-15.1	26.0*	6.8	.	7.8
28) Cc1ccc(C(=O)COC(=O)CN2C(=O)C3C4CCC(C4)C3C2=O)cc1[N+](=O)[O-] (centres undefined)
  -1.2	-4.2	5.8	-3.4	.	4.8
29) Cc1ccc(C(=O)COC(=O)CN2C(=O)C3C4CCC(C4)C3C2=O)cc1C (centres undefined)
  -1.3	2.2	24.4*	18.0	13.7	2.5
30) COC(=O)c1cccc(-c2ccc(C(c3c(C)[nH][nH]c3=O)c3c(C)[nH][nH]c3=O)o2)c1
  -1.3	31.8*	4.7	25.8*	-29.1	-4.7
31) O=C(COc1ccccc1O)N1CCN(C(=O)c2ccco2)CC1
  2.0	12.1	32.4*	8.2	-15.1	-0.1
32) Cc1noc(C)c1NC(=O)Nc1ccc2c(c1)C(=O)N([C@@H](C)CO)C[C@H](C)[C@@H](CN(C)S(=O)(=O)c1cn(C)cn1)O2
  .	.	.	.	-4.6	.
33) C[C@H](CO)N1C[C@H](C)[C@H](CN(C)C(=O)Nc2ccccc2)Oc2ccc(NC(=O)Nc3cccc4ccccc34)cc2C1=O
  .	.	.	.	15.7	.
34) CN(C)c1ccc(C#Cc2ccc3cc(CCO)oc(=O)c3c2)cc1
  -0.5	.	-0.3	.	-12.4	43.0*
35) COc1cc(C#Cc2ccc3cc(CCO)oc(=O)c3c2)cc(OC)c1
  0.4	6.0	8.9	-0.4	-16.2	-11.7
36) CC1(C(=O)NCCN2CCOCC2)C=CC2(CCCCC2)N1C(=O)c1ccccc1 (centres undefined)
  0.2	-13.1	19.7*	-11.3	-9.2	0.8
37) COCCNC(=O)C1(C)C=CC2(CCCCC2)N1C(=O)c1ccccc1 (centres undefined)
  0.7	-12.0	4.3	-6.0	-10.6	7.3
38) CO[C@@H]1CN(C)C(=O)c2ccc(NS(=O)(=O)c3ccccc3C)cc2OC[C@H](C)NC[C@@H]1C
  .	.	.	.	15.2	.
39) O=C(Nc1ccc(Br)cn1)c1ccc(COc2c(F)c(F)cc(F)c2F)o1
  8.4*	-4.8	-2.1	-17.8	5.0	4.2
40) O=C1C=CC(=O)c2c(O)c(N3CCN(CCOCCO)CC3)c(Br)c(O)c21
  -5.2	-7.8	65.1*	-11.4	.	-20.6
41) O=C1C=CC(=O)c2c(O)c(N3CCN(CCO)CC3)c(Cl)c(O)c21
  -1.6	0.0	55.2*	14.2	.	-21.2
42) Clc1cccc(COn2c(-c3ccc(Cl)cc3Cl)nc3ncccc32)c1
  6.1	6.6	4.6	-3.9	-13.6	8.8
43) Cc1ccc(COn2c(-c3ccc(Cl)cc3Cl)nc3ncccc32)cc1
  4.8	-5.9	33.4*	-5.2	-8.6	8.2

5 entries from above, with one line to a screen:
36. CC1(C(=O)NCCN2CCOCC2)C=CC2(CCCCC2)N1C(=O)c1ccccc1 (centres undefined)
37. COCCNC(=O)C1(C)C=CC2(CCCCC2)N1C(=O)c1ccccc1 (centres undefined)
38. CO[C@@H]1CN(C)C(=O)c2ccc(NS(=O)(=O)c3ccccc3C)cc2OC[C@H](C)NC[C@@H]1C
39. O=C(Nc1ccc(Br)cn1)c1ccc(COc2c(F)c(F)cc(F)c2F)o1
40. O=C1C=CC(=O)c2c(O)c(N3CCN(CCOCCO)CC3)c(Br)c(O)c21

Compound	36	37	38	39	40
MC4R ag barr	0.2	0.7	.	8.4*	-5.2
ARFGAP1 inh	-13.1	-12.0	.	-4.8	-7.8
CendR NRP1 mod	19.7*	4.3	.	-2.1	65.1*
ASAP1 inh	-11.3	-6.0	.	-17.8	-11.4
UUG fidelity	-9.2	-10.6	15.2	5.0	.
MC4R antagonist	0.8	7.3	.	4.2	-20.6
